The target in assay [1] is T1, DDC (Mycobacteroides abscessus, UniProt B1MDJ1). As to the kind of experiment: Steady-state kinetics with nitrocefin (Ki,app). The assay is classed as biochemical. To be noted: in parentheses in Table 3.
A further assay has as its target LDT5 (Mycobacterium abscessus, UniProt B1MM58). The assay can be described thus: Steady-state kinetics with nitrocefin (Ki,app). To be noted: in parentheses in Table 3. The assay is classed as biochemical.
The next assay has as its target T2, PBP-lipo (Mycobacteroides abscessus, UniProt B1MDC3).
T2 construct: made in house; host or cells: Escherichia coli BL21 (DE3)
As to the kind of experiment: Steady-state kinetics with nitrocefin (Ki,app). The assay is classed as biochemical. Conditions: in parentheses in Table 3.

Protein sequences, listed by entry. Tags and fused reporters are not part of them.
UniProt B1MDJ1, entry or part of it: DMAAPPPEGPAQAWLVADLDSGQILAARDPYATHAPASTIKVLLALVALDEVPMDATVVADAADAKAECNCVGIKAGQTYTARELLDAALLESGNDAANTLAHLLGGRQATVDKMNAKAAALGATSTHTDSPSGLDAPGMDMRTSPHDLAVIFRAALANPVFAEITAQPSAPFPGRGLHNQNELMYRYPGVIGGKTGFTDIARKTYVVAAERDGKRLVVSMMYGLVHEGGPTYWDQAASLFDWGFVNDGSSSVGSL
UniProt B1MM58, entry or part of it: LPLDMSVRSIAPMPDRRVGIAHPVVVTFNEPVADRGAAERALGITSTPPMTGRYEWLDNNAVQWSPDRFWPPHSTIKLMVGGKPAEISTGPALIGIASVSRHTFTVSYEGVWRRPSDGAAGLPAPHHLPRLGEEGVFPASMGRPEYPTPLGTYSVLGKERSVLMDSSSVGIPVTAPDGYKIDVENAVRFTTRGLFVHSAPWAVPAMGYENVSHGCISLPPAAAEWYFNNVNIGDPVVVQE
UniProt B1MDC3, entry or part of it: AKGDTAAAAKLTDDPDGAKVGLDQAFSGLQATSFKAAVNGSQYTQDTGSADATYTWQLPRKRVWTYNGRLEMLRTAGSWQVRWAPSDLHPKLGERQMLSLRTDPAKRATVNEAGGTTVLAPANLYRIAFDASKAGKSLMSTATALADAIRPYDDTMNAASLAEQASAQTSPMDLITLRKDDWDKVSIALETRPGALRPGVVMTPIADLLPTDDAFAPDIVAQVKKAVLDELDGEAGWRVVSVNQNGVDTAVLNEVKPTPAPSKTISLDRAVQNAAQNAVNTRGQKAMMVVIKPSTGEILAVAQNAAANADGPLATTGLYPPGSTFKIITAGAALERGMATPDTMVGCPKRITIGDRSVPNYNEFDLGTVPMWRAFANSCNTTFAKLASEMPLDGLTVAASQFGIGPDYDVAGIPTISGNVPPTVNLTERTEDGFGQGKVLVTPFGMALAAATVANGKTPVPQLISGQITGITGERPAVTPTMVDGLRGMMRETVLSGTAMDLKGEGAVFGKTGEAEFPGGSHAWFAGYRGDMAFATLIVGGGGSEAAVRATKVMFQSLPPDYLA
UniProt B1MP31, entry or part of it: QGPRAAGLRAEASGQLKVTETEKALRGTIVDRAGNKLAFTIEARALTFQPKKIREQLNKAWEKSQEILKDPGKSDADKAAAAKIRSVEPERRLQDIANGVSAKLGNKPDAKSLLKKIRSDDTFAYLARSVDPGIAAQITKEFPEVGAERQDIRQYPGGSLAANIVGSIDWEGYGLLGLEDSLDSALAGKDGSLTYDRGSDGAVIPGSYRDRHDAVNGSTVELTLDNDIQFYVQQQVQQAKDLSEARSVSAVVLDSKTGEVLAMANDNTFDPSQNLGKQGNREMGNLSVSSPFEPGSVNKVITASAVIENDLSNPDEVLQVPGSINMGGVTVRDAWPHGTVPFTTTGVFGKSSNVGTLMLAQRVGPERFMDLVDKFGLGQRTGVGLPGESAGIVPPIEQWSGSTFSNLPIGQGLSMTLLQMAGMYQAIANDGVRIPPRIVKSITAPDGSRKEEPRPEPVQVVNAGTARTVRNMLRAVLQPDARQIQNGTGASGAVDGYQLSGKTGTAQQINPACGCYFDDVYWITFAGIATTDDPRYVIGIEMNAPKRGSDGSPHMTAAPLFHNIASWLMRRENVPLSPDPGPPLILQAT

Assay [2] has as its target T1, DDC. The assay can be described thus: Mass spectrometry of covalent adduct formation. The assay is classed as binding. Conditions: protein:drug 1:20, 2 h; mass accuracy ±5 Da; (−) = no change.
The target of a further assay is PBP B (Mycobacterium abscessus, UniProt B1MP31). The assay can be described thus: Steady-state kinetics with nitrocefin (Ki,app). It counts as biochemical. To be noted: in parentheses in Table 3.

The results in this text go back to publication PMC11823594, “Durlobactam in combination with β-lactams to combat Mycobacterium abscessus” (Antimicrobial Agents and Chemotherapy, 2024).
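For Ratio of fCss,avg to Ki,app, DDC in this document: Parenthesised value is the fCss,avg to Ki,app ratio where above 1 means target likely hit.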
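For Ratio of fCss,avg to Ki,app, PBP B in this document: Parenthesised value is the fCss,avg to Ki,app ratio where above 1 means target likely hit.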

For `CC1(C)S[C@@H]2[C@H](NC(=O)[C@H](N)c3ccc(O)cc3)C(=O)N2[C@H]1C(=O)O` [Amoxicillin, amoxicillin], the “Ratio of fCss,avg to Ki,app, DDC” value on DDC [1] was 150. Moreover, on LDT5, the “Ratio of fCss,avg to Ki,app, LDT5” value is recorded as 1.2. In addition, on PBP-lipo, the “Ratio of fCss,avg to Ki,app, PBP-lipo” value was 60. Further, the “Observed MW (+ change in mw), DDC (26,788)” value on DDC [2] was 27,156 (+366) Da. Moreover, at PBP B, the “Ratio of fCss,avg to Ki,app, PBP B” value is reported as 2.
